Tests used:
Plasma stability = assay type: in vitro ADME, mouse; details: 2 μM, 37° C., up to 24 hours
Description: (§1) Analytical LC-MS/MS conditions.
Plasma Stability. CD1 mouse plasma isolated using acidified citrate dextrose (ACD) was purchased from BioIVT and a DMSO stock of each compound was diluted into it at a final concentration of 2 μM. An aliquot was immediately removed for a zero time point and quenched with an equal volume of acetonitrile containing 0.2% formic acid and 200 ng/ml Tolbutamide IS. The remainder of the sample was incubated in a 37° C. water bath for up to 24 hours. Samples were removed at the indicated times and processed as described for the zero time point. After vortexing and centrifugation to pellet protein, the supernatant was analyzed by LC-MS/MS as described above. A control incubation was conducted in saline (0.9% NaCl).

[1] = Mouse liver microsome stability; assay type: in vitro ADME; details: 2 μM, 0.5 mg/mL microsome protein, NADPH
Description: as §1
Mouse liver microsome stability. Male ICR/CD-1 mouse microsome fractions (lot 2110330) were purchased from Xenotech (Kansas City, KS). Microsome protein (0.5 mg/mL) was placed in a glass screw cap tube; a 2 mM DMSO stock of (D/L)-LA3IK and (D/L)-RP-7 were spiked into separate 50 mM Tris, pH 7.5 solution and this was added to the microsome solution on ice. The final concentration of compounds after addition of all reagents was 2 μM. An NADPH-regenerating system (1.7 mg/ml NADP, 7.8 mg/ml glucose-6-phosphate, 6 U/ml glucose-6-phosphate dehydrogenase in 2% w/v NaHCO3/10 mM MgCl2) was added for analysis of Phase I metabolism after heating both the regenerating solution and the sample tubes to 37° C. for 5 min in a 37° C. shaking water bath. The incubation was continued and at varying time points after addition of phase I cofactors, the reaction was stopped by the addition of 0.5 ml of acetonitrile containing IS and formic acid such that the final concentration of IS was 100 ng/ml and acid was 0.1%. Time 0 samples were stopped with the acetonitrile solution while still on ice prior to addition of the NADPH regenerating system and compound, which were subsequently added. […] The supernatant was analyzed by LC-MS/MS. […] The half-life (T ½) was calculated as T ½=0.693/slope.

| Substance | Murine Plasma T 1/2 (Plasma stability) [h] | Mouse Microsome T 1/2 [1] [h] |
| --- | --- | --- |
| d(L)d(A)d(I)d(A)d(V)d(K) [D-LA3IK] | >24 | >2 |
| d(R)d(P)d(P)d(C)d(V)d(I)d(L) [D-RP-7] | 0.12 | >2 |
